Test system: pYL42 and pYL53 strains
Settings: 960 min

CN[C@@H]1[C@H](O)[C@H](NC)[C@H]2O[C@]3(O)[C@H](O[C@@H]2[C@H]1O)O[C@H](C)C[C@H]3NC(=O)Cc1ccc(Cl)cn1 [Spa]
MIC higher for pYL53 than for pYL42: ~4 fold

From publication PMC8092523 (Antimicrobial Agents and Chemotherapy, 2021)
